# From US20260384443A1, “THIADIAZOLES AS GLUTAMINASE I INHIBITORS” (published 2026)
# Sequences of proteins named here, by UniProt entry; tags and fusion partners are left off. Residues count along the entry.
# UniProt O94925, 55-669 limits assumed: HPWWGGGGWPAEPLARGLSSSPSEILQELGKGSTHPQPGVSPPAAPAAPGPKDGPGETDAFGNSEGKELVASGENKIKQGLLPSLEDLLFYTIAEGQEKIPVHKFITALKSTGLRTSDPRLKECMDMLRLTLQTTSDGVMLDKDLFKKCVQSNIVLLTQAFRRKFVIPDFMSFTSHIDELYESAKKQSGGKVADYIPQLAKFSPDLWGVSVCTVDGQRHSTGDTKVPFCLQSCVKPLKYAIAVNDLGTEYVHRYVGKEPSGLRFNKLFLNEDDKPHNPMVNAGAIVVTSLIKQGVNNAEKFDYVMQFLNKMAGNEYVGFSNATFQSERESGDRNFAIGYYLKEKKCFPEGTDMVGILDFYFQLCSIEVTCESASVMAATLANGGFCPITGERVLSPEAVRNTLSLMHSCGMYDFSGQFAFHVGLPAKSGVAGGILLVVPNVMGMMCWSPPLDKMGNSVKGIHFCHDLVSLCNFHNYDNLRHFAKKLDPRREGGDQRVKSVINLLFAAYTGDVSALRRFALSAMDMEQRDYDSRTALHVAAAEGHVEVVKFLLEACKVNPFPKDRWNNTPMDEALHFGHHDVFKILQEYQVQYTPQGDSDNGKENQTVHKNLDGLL
# UniProt O94925, 73-669 limits assumed: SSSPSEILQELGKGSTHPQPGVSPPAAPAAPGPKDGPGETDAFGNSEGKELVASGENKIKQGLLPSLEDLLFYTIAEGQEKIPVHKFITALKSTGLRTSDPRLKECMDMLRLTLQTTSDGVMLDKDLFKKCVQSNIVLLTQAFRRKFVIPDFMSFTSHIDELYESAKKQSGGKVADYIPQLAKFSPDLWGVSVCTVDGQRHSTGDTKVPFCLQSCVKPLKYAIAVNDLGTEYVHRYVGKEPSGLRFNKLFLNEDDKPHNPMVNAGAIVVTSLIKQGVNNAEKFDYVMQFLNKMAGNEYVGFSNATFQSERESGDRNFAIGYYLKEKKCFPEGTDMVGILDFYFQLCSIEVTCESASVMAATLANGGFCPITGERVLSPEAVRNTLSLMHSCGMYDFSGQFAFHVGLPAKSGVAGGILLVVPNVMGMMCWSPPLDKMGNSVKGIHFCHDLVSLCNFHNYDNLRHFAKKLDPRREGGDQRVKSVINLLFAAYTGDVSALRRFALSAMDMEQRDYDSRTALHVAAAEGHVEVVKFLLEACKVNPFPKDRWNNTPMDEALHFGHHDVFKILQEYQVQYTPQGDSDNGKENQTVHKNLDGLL
# Key:
# [1] = molecular target: T1, GLS1 (Homo sapiens, UniProt O94925); experiment: GLS1 enzymatic assay (three-stage coupled endpoint assay: GLS1/GDH/diaphorase, resorufin fluorescence); details: read-out: Enzyme IC50
# [2] = Kinetic solubility; details: for Kinetic Solubility: PBS buffer pH 7.4, 90 minutes at RT, from 10 mM DMSO stock, UV-VIS; for kinetic solubility compared with Reference Example 3: PBS buffer pH 7.4, in words
# [3] = molecular target: T1, GLS1; experiment: GLS1 cell assay: intracellular glutamate level in A549 cells (Glutamine/Glutamate-Glo); details: read-out: Cell IC50, 2 h compound pre-incubation, then 24 h with L-Gln
# [4] = In-vivo pharmacokinetics in lung, dosed intranasally in mouse (protocol for compounds of formula (I), Balbc); details: intranasal; for AUClast in lung / Cmax in lung: 2 mg/kg single dose, male Balbc mouse, vehicle pH 5.2 citrate buffer; for AUClast in lung: up to 24 h; for duration in the lung compared with Reference Examples 1 and 2 / lung concentration compared with prior art compounds / Reference Examples 1 and 2: mouse, in words
# [5] = In-vivo pharmacokinetics in lung, dosed intranasally in mouse (protocol for RE1 and RE2, C57bl/6); details: intranasal, 2 mg/kg single dose, male C57bl/6 mouse, vehicle 5% DMSO in 12% (2-hydroxypropyl)-β-cyclodextrin 0.9% NaCl; for AUClast in lung: up to 24 h
IC50 [1] [nM],IC50 [3] [nM],SMILES,further results
40,33.2,CC(C)Oc1ccccc1CN1CCC[C@@H](CC(=O)Nc2nnc(N[C@@H]3CCN(c4cccnn4)C3)s2)C1,Kinetic Solubility [2]: 530.07 µM; kinetic solubility compared with Reference Example 3 [2]: improved kinetic solubility compared with Reference Example 3
24.2,4.4,O=C(C[C@@H]1CCCN(Cc2cc(F)cc(F)c2)C1)Nc1nnc(N[C@@H]2CCN(c3cccnn3)C2)s1,Kinetic Solubility [2]: 252.47 µM; kinetic solubility compared with Reference Example 3 [2]: improved kinetic solubility compared with Reference Example 3; AUClast in lung [4]: 49897 ng·h/g; Cmax in lung [4]: 27200 ng/g; duration in the lung compared with Reference Examples 1 and 2 [4]: longer duration; lung concentration compared with prior art compounds / Reference Examples 1 and 2 [4]: higher lung concentrations
52.2,0.74,CN(C)[C@H](C(=O)Nc1nnc(N[C@@H]2CCN(c3cccnn3)C2)s1)c1cccc(OC(F)(F)F)c1 (racemic),AUClast in lung [5]: 2624 ng·h/g; Cmax in lung [5]: 10850 ng/g
25.7,4.7,"CC1(C)CCC(N2CCOC(CC(=O)Nc3nnc(N[C@@H]4CCN(c5cccnn5)C4)s3)C2)CC1 (single isomer, unassigned) [Example 110]",Kinetic Solubility [2]: 463.19 µM; kinetic solubility compared with Reference Example 3 [2]: improved kinetic solubility compared with Reference Example 3; AUClast in lung [4]: 127878 ng·h/g; Cmax in lung [4]: 119833 ng/g; duration in the lung compared with Reference Examples 1 and 2 [4]: longer duration; lung concentration compared with prior art compounds / Reference Examples 1 and 2 [4]: higher lung concentrations
47.8,11.8,CC(C)Oc1ccccc1CN1CCC2(CC1)COC(C(=O)Nc1nnc(N[C@@H]3CCN(c4cccnn4)C3)s1)C2 (stereo partly shown),Kinetic Solubility [2]: 508.85 µM; kinetic solubility compared with Reference Example 3 [2]: improved kinetic solubility compared with Reference Example 3
–,–,O=C(Cc1ccccc1)Nc1nnc(N[C@@H]2CCN(c3cccnn3)C2)s1,Kinetic Solubility [2]: 101.72 µM
97.1,1.08,COC(C(=O)Nc1nnc(N[C@@H]2CCN(c3cccnn3)C2)s1)c1cccc(OC(F)(F)F)c1 (mixture of isomers),AUClast in lung [5]: 521 ng·h/g; Cmax in lung [5]: 1537 ng/g
13.3,3.1,O=C(CC1CN(C2CC3(CCCC3)C2)CCO1)Nc1nnc(N[C@@H]2CCN(c3cccnn3)C2)s1 (stereo partly shown),–
15.5,1.2,CC(C)Sc1ccccc1CN1CCC2(CC1)CCN(CC(=O)Nc1nnc(N[C@@H]3CCN(c4cccnn4)C3)s1)C2,–
55.8,19.9,Cc1ccc(OC(F)F)c(CN2CCC(CC(=O)Nc3nnc(N[C@@H]4CCN(c5cccnn5)C4)s3)CC2)c1,–
32.8,7.5,CC1(C)CCC(N2CCOC(CC(=O)Nc3nnc(N[C@@H]4CCN(c5cccnn5)C4)s3)C2)CC1 (stereo partly shown),–
89.6,16.7,COC(C(=O)Nc1nnc(N[C@@H]2CCN(c3cccnn3)C2)s1)C1CCN(Cc2ccccc2OC2CCC2)CC1 (stereo partly shown),–
37.4,3,"O=C(Nc1nnc(N[C@@H]2CCN(c3cccnn3)C2)s1)[C@H]1CC2(CCN(Cc3cccc(OC(F)F)c3)CC2)CO1 (single isomer, unassigned) [Example 195]",–
42.9,47.8,O=C(CC1CC2(C1)CN(Cc1cccc(OC(F)F)c1)C2)Nc1nnc(N[C@@H]2CCN(c3cccnn3)C2)s1,–
145,7.9,"C[C@@H](C(=O)Nc1nnc(N[C@@H]2CCN(c3cccnn3)C2)s1)C1CCN(Cc2ccc(OC(F)(F)F)cc2)CC1 (single isomer, unassigned) [Example 23]",–
31.8,23.2,O=C(CC1CCC2(CC1)CN(Cc1cccc(OC(F)F)c1)C2)Nc1nnc(N[C@@H]2CCN(c3cccnn3)C2)s1,–
23.2,5.5,O=C(CC1CC2(CO1)CN(Cc1cccc(OC(F)(F)F)c1)C2)Nc1nnc(N[C@@H]2CCN(c3cccnn3)C2)s1 (stereo partly shown),–
45,1.6,CC(C)Sc1ccc(CN2CCN(CC(=O)Nc3nnc(N[C@@H]4CCN(c5cccnn5)C4)s3)CC2)cc1,–
36.9,34.4,O=C(CC1CN(C2CCCCC2)CCO1)Nc1nnc(N[C@@H]2CCN(c3cccnn3)C2)s1 (stereo partly shown),–
52.8,9.3,"O=C(Nc1nnc(N[C@@H]2CCN(c3cccnn3)C2)s1)[C@H]1CC2(CCN(Cc3ccccc3OC3CCC3)CC2)CO1 (single isomer, unassigned) [Example 214]",–
58.5,3.9,O=C(CN1CCCN(Cc2ccc(OC(F)(F)F)cc2)CC1)Nc1nnc(N[C@@H]2CCN(c3cccnn3)C2)s1,–
30.9,5.4,O=C(C[C@H]1CCN(Cc2cccc(OC(F)(F)F)c2)C1)Nc1nnc(N[C@@H]2CCN(c3cccnn3)C2)s1,–
16.2,7.4,O=C(CC1CCC2(CC1)CCN(Cc1cc(Br)ccn1)CC2)Nc1nnc(N[C@@H]2CCN(c3cccnn3)C2)s1,–

IC50 [1] [nM],IC50 [3] [nM],SMILES,further results
53.5,48,"CN1CCN(C2CCC(C)(C)CC2)C[C@H]1CC(=O)Nc1nnc(N[C@@H]2CCN(c3cccnn3)C2)s1 (single isomer, unassigned) [Example 287]",–
27.8,15.5,O=C(CCC1CCN(Cc2cccc(OC(F)F)c2)CC1)Nc1nnc(N[C@@H]2CCN(c3cccnn3)C2)s1,–
36.8,9.4,O=C(CC1CCC2(CC1)CCN(Cc1ccc(C(F)(F)F)cn1)CC2)Nc1nnc(N[C@@H]2CCN(c3cccnn3)C2)s1,–
58.9,4.2,O=C(C[C@@H]1CCCN(Cc2cccc(Cl)c2)C1)Nc1nnc(N[C@@H]2CCN(c3cccnn3)C2)s1,–
79.6,20.3,CC1(C)CCC(N2CCOC(CC(=O)Nc3nnc(N[C@@H]4CCN(c5cncnn5)C4)s3)C2)CC1 (stereo partly shown),–
30.7,13.7,Cc1cc(CN2CCC[C@@H](CC(=O)Nc3nnc(N[C@@H]4CCN(c5cccnn5)C4)s3)C2)cc(OC(C)C)c1,–
20,22.7,Cc1ccc(CN2CCC3(CC(CC(=O)Nc4nnc(N[C@@H]5CCN(c6cccnn6)C5)s4)C3)C2)c(OC(C)C)c1 (stereo partly shown),–
24.2,2.1,"CC(C)[C@H]1CC[C@H](N2CCO[C@H](CC(=O)Nc3nnc(N[C@@H]4CCN(c5cccnn5)C4)s3)C2)CC1 (single isomer, unassigned) [Example 246]",–
15.5,5.9,O=C(CC1CN(C2CCCCC2)CCC1(F)F)Nc1nnc(N[C@@H]2CCN(c3cccnn3)C2)s1 (stereo partly shown),–
16.7,5,O=C(CC1CCC2(CC1)CCN(Cc1cncc(Br)c1)CC2)Nc1nnc(N[C@@H]2CCN(c3cccnn3)C2)s1,–
28.1,1.9,CC(C)(C1CCCCC1)N1CCOC(CC(=O)Nc2nnc(N[C@@H]3CCN(c4cccnn4)C3)s2)C1 (stereo partly shown),–
19.7,1.2,"CC(C)(C1CCCCC1)N1CCO[C@H](CC(=O)Nc2nnc(N[C@@H]3CCN(c4cccnn4)C3)s2)C1 (single isomer, unassigned) [Example 153]",–
71.9,26,COc1ccc(CN2CC(CC(=O)Nc3nnc(N[C@@H]4CCN(c5cccnn5)C4)s3)CC3(CC3)C2)nc1C(F)(F)F (stereo partly shown),–
106,4.2,CC(C)Sc1ccccc1CN1CCCC(OCC(=O)Nc2nnc(N[C@@H]3CCN(c4cccnn4)C3)s2)C1 (stereo partly shown),–
25.1,143,CC(C)Oc1ccccc1CCN1CCC[C@H](CC(=O)Nc2nnc(N[C@@H]3CCN(c4cccnn4)C3)s2)C1,–
24.9,4.1,CC(C)Oc1cc(F)cc(CN2CCC[C@@H](CC(=O)Nc3nnc(N[C@@H]4CCN(c5cccnn5)C4)s3)C2)c1,–
27.4,2,CC(C)Oc1ccccc1C(C)N1CCC(SCC(=O)Nc2nnc(N[C@@H]3CCN(c4cccnn4)C3)s2)CC1 (stereo partly shown),–
25.9,9.4,"CN1CCN(CC2CCC(C)(C)CC2)C[C@H]1CC(=O)Nc1nnc(N[C@@H]2CCN(c3cccnn3)C2)s1 (single isomer, unassigned) [Example 280]",–
56.7,3.8,O=C(CC1CCN(Cc2ccccc2OC(F)(F)F)CC1)Nc1nnc(N[C@@H]2CCN(c3cccnn3)C2)s1,–
66.2,4.1,"CC(C)Sc1ccccc1CN1CCC[C@@H](OCC(=O)Nc2nnc(N[C@@H]3CCN(c4cccnn4)C3)s2)C1 (single isomer, unassigned) [Example 107]",–
52,1.7,CC1(C)CC(CN2CCN(CC(=O)Nc3nnc(N[C@@H]4CCN(c5cccnn5)C4)s3)CC2)CC(C)(C)C1,lung concentration compared with prior art compounds / Reference Examples 1 and 2 [4]: higher lung concentration compared with prior art compounds
27.3,6.6,"CC(C)[C@H]1CC[C@H](N2CCO[C@H](CC(=O)Nc3nnc(N[C@@H]4CCN(c5cccnn5)C4)s3)C2)CC1 (single isomer, unassigned) [Example 247]",–
56.4,49.9,CC(C)N1CCN(Cc2cccc(OC(F)F)c2)C(CC(=O)Nc2nnc(N[C@@H]3CCN(c4cccnn4)C3)s2)C1 (stereo partly shown),–
